Two compounds from patent publication US20230287003A1, “BCL6 INHIBITORS” (Cancer Research Technology Limited, priority 2018, published 2023) can be followed below.

Assay [1] concerns the target human BCL6 BTB domain (Trx-6×His-BCL6) / BCOR-AF633 peptide (Homo sapiens (Human), UniProt P41182). Briefly: HTRF assay. The format is binding. (In TR-FRET formats the signal depends on donor and acceptor labels being close together.)
Assay [2] addresses BCL6-NCOR2(SMRT) corepressor protein-protein interaction (Homo sapiens (Human), UniProt P41182). Briefly: NanoBRET cell assay. The format is cell-based. The conditions noted are these: HEK293T cells co-transfected with BCL6-nanoLuc and NCOR2-HaloTag, 6 hr incubation; read-out: NanoBRET cell avg pIC50 (converted). The text has this: At 20 hr post-transfection, cells were collected, washed with PBS, and exchanged into media containing phenol red-free OptiMEM+4% FBS (Life Technology).
(In BRET a luciferase serves as donor, and the signal depends on an acceptor being close.)

`Cn1c(=O)c2c(c3cc(Nc4ccnc(Cl)c4C#N)ccc31)N[C@H](C1CC1)CCO2` [Example 1e, (S)-2-chloro-4((2-cyclopropyl-7-methyl-6-oxo-1,2,3,4,6,7-hexahydro-[1,4]oxazepino[2,3-c]quinolin-10-yl)amino)nicotinonitrile]: the “HTRF avg pIC50 (1 nM)” value in assay [1] was determined as 6.07.
In the case of `Cn1c(=O)c2c(c3cc(Nc4ccnc(Cl)c4C#N)ccc31)N[C@@H](C1CC1)CCO2` [Example 1d, (R)-2-chloro-4((2-cyclopropyl-7-methyl-6-oxo-1,2,3,4,6,7-hexahydro-[1,4]oxazepino[2,3-c]quinolin-10-yl)amino)nicotinonitrile], the IC50 in assay [2] is 204 nM.
